Source: patent publication US20240043403A1, “HETEROARYL CARBOXAMIDE COMPOUND” (Astellas Pharma Inc., priority 2020, published 2024)

The chains behind the UniProt entries cited, without tags or fusion partners.
UniProt Q13574, whole entry: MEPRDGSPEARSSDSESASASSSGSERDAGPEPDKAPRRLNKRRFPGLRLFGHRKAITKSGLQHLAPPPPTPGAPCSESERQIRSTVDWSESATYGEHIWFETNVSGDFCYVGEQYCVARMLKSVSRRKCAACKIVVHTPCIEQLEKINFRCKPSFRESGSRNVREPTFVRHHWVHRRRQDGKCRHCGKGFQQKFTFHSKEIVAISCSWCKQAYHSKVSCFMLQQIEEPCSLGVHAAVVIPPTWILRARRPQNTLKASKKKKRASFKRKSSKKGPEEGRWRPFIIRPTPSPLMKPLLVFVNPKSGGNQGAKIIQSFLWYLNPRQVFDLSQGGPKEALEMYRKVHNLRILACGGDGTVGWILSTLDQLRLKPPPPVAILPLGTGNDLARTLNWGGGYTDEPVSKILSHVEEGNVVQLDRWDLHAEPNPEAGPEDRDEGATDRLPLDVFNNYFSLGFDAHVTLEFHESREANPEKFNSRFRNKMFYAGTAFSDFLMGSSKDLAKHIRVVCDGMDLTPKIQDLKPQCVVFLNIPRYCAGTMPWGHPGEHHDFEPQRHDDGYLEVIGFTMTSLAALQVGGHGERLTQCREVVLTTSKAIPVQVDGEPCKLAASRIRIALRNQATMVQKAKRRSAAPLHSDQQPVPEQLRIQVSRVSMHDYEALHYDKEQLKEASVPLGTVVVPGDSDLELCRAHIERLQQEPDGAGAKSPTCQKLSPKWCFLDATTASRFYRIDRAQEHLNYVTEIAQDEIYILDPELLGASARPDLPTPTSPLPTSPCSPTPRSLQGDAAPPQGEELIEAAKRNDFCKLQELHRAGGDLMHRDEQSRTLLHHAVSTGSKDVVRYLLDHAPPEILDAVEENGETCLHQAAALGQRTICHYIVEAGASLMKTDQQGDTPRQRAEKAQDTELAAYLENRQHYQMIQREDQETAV

Biological target: human recombinant DGK ξ (Homo sapiens (Human), UniProt Q13574)
Assay: Evaluation of DGK ξ inhibitory effect (ADP-Glo Kinase Assay)
Details: ADP-Glo luminescence
Method: Test Example 1. Evaluation of DGK ξ Inhibitory Effect
The inhibitory effect of a test compound on human recombinant DGK ξ (Cama Biosciences, Inc., 12-410-20N) was examined by the following method in which detection is performed with ADP-Glo™ Kinase Assay (Promega Corporation).
To a 384-well plate (Greiner Bio-One Co., Ltd.), 3 μL of a DGK ξ enzyme dissolved in an assay buffer (40 mM Tris-HCl pH 7.5, 10 mM MgCl2, 1 mM dithiothreitol (DTT) and 0.1 mg/mL bovine serum albumin (BSA)) (90 ng/mL) was added, and 3 μL of the test compound diluted with the same assay buffer was added so that an intended final concentration was obtained. The mixture was left standing at room temperature for 15 minutes, 3 μL of a substrate (150 μM 1-oleoyl-2-acetyl-sn-glycerol (Sigma-Aldrich Co. LLC), 480 μM phosphatidylserine (Avanti, Inc.) and 150 μM UltraPure-ATP (attached to ADP-Glo)) was then added, and the mixture was left standing at room temperature for 30 minutes to react. Thereafter, 3 μL of an ADP-Glo Reagent was added, and the mixture was left standing at room temperature for 40 minutes to stop the enzyme reaction. Further, 6 μL of a Kinase-Detection Reagent was added, the mixture was left standing at room temperature for 30 minutes, and the luminescence was then measured using ARVO X3 (PerkinElmer, Inc.). […]

Compound | IC50
CN(C)CCOc1cc(-c2c(NC(=O)c3ccn(-c4ccnnc4)n3)ccc(OC3CCC3)c2C(F)(F)F)ccn1 | 20 nM
CNC[C@H]1CN(c2c(NC(=O)c3ccn(-c4ccnnc4)n3)ccc(Oc3ccccc3F)c2F)CCN1C | 4.9 nM
